Results on 1 molecule are retold here after PubChem BioAssay AID588350 (The Scripps Research Institute Molecular Screening Center, 2011).

The entries are a selection whose mix differs from that of the whole data set. The source made the active and inactive calls.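 The calls were made as follows: active = mean activation above the mean of solvent-only control wells plus 3 SD (cut at about 22% in these data); inactive = the rest.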

The test in a line: frataxin GAA30 reporter activation – cell-based, luminescence, HEK293, lucGAA30, triplicate, counter-screen for GAA850 frataxin promoter activator project, confirmation (AID 588350).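 Also: counterscreen of GAA850 promoter hits where activity marks nonselective or luminescence artifacts.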 The settings on record: HEK293 lucGAA30 FXN promoter luciferase, 24 h; at 6 µM; active compounds read high; DMSO = 0%, 5 µM ipriflavone = 100%.
As to `O=[N+]([O-])c1cc([N+](=O)[O-])c(NCC2CCS(=O)(=O)C2)c([N+](=O)[O-])c1` (stereo unspecified), the activation was active: 32.6%.
